Values quoted from earlier work as cited in patent publication US9364565B2, “Medical device with coating for capturing genetically-altered cells and methods of using same” (OrbusNeich Medical, Inc., priority 2000, dated 2016).

Sequences of proteins named here, by UniProt entry; tags and fusion partners are left off. Residues count along the entry.
UniProt P35968, 20-1356: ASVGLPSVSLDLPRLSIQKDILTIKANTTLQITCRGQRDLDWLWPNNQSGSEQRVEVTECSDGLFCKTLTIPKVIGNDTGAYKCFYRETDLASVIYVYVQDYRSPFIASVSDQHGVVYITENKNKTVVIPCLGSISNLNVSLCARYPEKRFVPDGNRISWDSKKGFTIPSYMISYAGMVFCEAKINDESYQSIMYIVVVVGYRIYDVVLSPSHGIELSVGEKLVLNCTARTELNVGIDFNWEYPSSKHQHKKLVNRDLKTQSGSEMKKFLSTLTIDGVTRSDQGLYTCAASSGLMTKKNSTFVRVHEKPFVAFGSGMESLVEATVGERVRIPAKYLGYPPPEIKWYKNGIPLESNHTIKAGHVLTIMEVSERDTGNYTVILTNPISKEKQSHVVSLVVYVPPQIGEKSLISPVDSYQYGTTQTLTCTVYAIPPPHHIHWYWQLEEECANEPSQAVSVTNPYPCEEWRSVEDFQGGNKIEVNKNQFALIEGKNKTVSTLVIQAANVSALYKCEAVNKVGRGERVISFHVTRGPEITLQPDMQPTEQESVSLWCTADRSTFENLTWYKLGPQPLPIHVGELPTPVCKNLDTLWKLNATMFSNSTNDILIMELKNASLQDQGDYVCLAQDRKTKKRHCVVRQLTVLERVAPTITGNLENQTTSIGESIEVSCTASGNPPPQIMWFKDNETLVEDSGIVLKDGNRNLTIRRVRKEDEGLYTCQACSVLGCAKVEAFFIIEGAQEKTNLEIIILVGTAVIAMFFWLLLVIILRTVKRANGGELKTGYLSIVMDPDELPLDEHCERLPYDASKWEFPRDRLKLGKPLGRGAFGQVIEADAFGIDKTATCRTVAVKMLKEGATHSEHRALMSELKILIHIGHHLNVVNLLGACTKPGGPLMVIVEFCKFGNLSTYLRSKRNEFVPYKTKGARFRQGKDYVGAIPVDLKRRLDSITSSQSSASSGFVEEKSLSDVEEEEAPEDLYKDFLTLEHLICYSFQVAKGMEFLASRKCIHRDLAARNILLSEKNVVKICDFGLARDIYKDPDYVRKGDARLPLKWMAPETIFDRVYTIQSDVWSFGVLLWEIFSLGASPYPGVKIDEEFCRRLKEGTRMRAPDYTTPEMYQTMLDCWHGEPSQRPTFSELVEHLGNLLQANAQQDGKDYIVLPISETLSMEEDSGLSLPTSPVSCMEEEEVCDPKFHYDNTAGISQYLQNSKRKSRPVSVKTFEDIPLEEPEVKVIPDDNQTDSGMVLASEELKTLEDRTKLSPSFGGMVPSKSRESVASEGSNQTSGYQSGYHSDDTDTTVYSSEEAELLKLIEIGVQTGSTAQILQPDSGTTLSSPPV

Molecular target: VEGFR-2 (Homo sapiens, UniProt P35968)

For `Clc1ccc(Nc2nnc(Cc3ccncc3)c3ccccc23)cc1` [PTK787/ZK222584], the “binding to VEGFR-2” value is given as “bind to VEGFR-2”.
